Experimental data taken from patent publication US9157917B2, “Applications of Indoloindole and Indoloquinoline dyes” (Biosynth AG, priority 2010, dated 2015).

Experiments:
[1] = system: phosphatase coupled goat anti rabbit antibody; experiment: Dot blot on nitrocellulose membrane; format: biochemical; settings: 0.4 mM in assay buffer pH 9.5, after a few minutes of incubation
[2] = system: E. coli; experiment: Nutrient agar with oil in water emulsion; format: cell-based; settings: 0.4 mM, 16 hours

| SMILES | Fluorescence of spot containing beta-galactosidase under UV 366 nm light [1] | Fluorescence of E. coli colonies under UV 366 nm ([2]; nutrient agar with paraffin oil, Tween 80 and 1,2-dipalmitoyl-rac-glycero-3-phosphocholine) | Fluorescence of E. coli colonies under UV 366 nm ([2]; nutrient agar without further additions) |
| --- | --- | --- | --- |
| COc1ccc(C(=O)c2ccccc2-n2cc(OP(=O)(O)O)c3ccccc32)c(OC)c1 [Aldol™ 470 phosphate] | yellow fluorescence | – | – |
| Cn1cccc1C(=O)c1ccccc1-n1cc(O[C@@H]2O[C@H](CO)[C@H](O)[C@H](O)[C@H]2O)c2ccc(Cl)cc21 [Aldol™ 495 beta-D-galactoside] | – | green fluorescent | did not show any fluorescence |
